Measurements: patent US20060173064A1, “(-)-1-(3,4-Dichlorophenyl)-3-azabi cyclo[3.1.0]hexane, compositions thereof, and uses for treating alcohol-related disorders” (priority 2001, published 2006)
pKi: −log10 of the molar value. Counter-ions that a name gives are not always drawn.

Protein sequences, listed by entry. Tags and fused reporters are not part of them. Residues count along the entry.
UniProt H0WCX4, 1-619: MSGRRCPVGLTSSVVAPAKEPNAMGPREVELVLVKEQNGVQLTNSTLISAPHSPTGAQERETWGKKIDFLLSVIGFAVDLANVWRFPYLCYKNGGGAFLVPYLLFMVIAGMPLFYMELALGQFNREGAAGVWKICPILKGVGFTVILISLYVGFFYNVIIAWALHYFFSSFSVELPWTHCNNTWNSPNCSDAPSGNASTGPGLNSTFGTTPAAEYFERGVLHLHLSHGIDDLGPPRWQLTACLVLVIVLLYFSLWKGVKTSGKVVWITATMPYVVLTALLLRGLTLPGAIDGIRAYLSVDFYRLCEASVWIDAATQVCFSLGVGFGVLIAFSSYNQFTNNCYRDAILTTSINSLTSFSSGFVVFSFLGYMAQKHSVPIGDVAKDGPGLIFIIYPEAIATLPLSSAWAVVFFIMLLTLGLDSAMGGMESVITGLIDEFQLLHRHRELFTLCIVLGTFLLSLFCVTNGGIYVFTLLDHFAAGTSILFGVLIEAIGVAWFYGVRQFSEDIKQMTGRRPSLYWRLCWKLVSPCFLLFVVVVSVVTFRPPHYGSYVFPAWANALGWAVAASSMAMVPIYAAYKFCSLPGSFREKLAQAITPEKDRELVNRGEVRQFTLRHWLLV

Target: T1, dopamine transporter (dopamine uptake site), guinea pig striatal membranes (Cavia porcellus, UniProt H0WCX4)
T1 construct: The receptor source was guinea pig striatal membranes; from tissue; host or cells: guinea pig striatum (membranes)
Assay: Dopamine transporter binding assay ([3H]WIN 35,428)

`Fc1ccc(C(OCCN2CCN(CCCc3ccccc3)CC2)c2ccc(F)cc2)cc1` [GBR 12909, 1-[2-[bis(4-Fluorophenyl)methoxy]ethyl]-4-[3-phenylpropyl]piperazine dihydrochloride] showed a pKi of 7.94.
